# PubChem BioAssay AID1159606 (Sanford-Burnham Center for Chemical Genomics, 2016)
# Only a part is listed here, and it is no random draw. Activity calls are given as the source filed them. Cut-off read from the data, not from the text of the source: active = inhibition above about 50%; inactive = the rest.
# Experiment: inhibitors of TWEAK-Fn14 signaling, primary screen, luciferase reporter cells, uHTS (AID 1159606)
# Settings: TWEAK-stimulated Fn14 reporter cells, luciferase luminescence, 8 h; at 10 µM; hits give high values
row,Compound,inhibition
1,CN(C(=O)Cc1ccc(Cl)c(Cl)c1)[C@H]1CC[C@@]2(CCCO2)C[C@@H]1N1CCCC1,inactive: 1.82%
